Data taken from patent publication EP1094711B1, “METHODS FOR ERADICATION OF NANOBACTERIA” (Nanobac Oy, priority 1998, dated 2000).

Tested on: nanobacteria
Experiment: Antibiotic sensitivity test by Minimal Inhibition Concentration (MIC), 96-well plates, absorbance at 650 nm
Conditions: light or radiation study, 288 h

NC[C@H]1O[C@H](O[C@H]2[C@H](O)[C@@H](O[C@H]3O[C@H](CO)[C@@H](O)[C@H](N)[C@H]3O)[C@H](N)C[C@@H]2N)[C@H](O)[C@@H](O)[C@@H]1O [Kanamycin]
IC50 (read-out: MIC 50): 50 µg/mL (≈ 103 µM) | IC90 (read-out: MIC 90): 200 µg/mL (≈ 413 µM)

Converted amounts (≈) assume the structure as drawn.
